Tests used:
[1] = system: cell histotypes developing resistance against doxorubicin mediated by overexpression of glycoprotein P; details: MDR; cited from earlier work
LoVo/Dx = test: MTT cytotoxicity, multidrug-resistant subline LoVo/DX; type: cell-based, human; details: LoVo/DX vs LoVo; 60 min
Method: The evaluation of the biological activity for the compounds of this invention was performed "in vitro" and "in vivo" following the protocols developed by the U.S. National Cancer Institute.
The evaluation of the "in vitro" cytotoxic activity of the compounds of the invention was performed using the following cell lines: a murine sarcoma (S-180) and its subline expressing multidrug resistance (S-180/A-10), a leukemia (L1210), a human colon adenocarcinoma cell line (LoVo) isolated from a metastatic nodule and its subline expressing multidrug resistance. This latter subline is resistant to a number of antitumor agents, among which are doxorubicin, VP-16 and vincristine. […] The compounds were tested according to the MTT assay (Mosman, T. "Rapid Colorimetric Assay for Cellular Growth and Survival: Application to Proliferation and Cytotoxicity Assay", J. Immunol. Methods, (1983), 65, 55-63; Green, L. M., "Rapid Colorimetric Assay for Cell Viability; Application to the Quantitation of Cytotoxic and Growth Inhibitory Lymphokines", J. Immunol. Methods, (1984), 70, 257-268) in comparison with mitoxantrone and doxorubicin.
The columns headed L1210, S180 LoVo and LoVo/Dx contain the IC50 values against said tumor cell lines, as above described. […]
CYTOTOXICITY ON LOVO AND LOVO/DX WAS DETERMINED BY MTT ASSAY FOLLOWING 1

O=C1c2c(O)ccc(O)c2C(=O)c2c(NCCNCCO)ccc(NCCNCCO)c21 [mitoxantrone, 5,8-dihydroxy-1,4-bis[(2-(2-hydroxyethylamino)ethyl)amino]anthracene-9,10-dione]
cross-resistance to doxorubicin-resistant cell histotypes [1]: cross-resistance | resistance index RI (ratio of IC50 for the resistance cell line to IC50 for the sensitive cell line) (LoVo/Dx): 22.5
